Test results as given in article PMC11362597.

Target: GST-fused recombinant ARHGAP25 (human) (UniProt P42331)
Assay: affinity purification with mass spectrometry; GST-ARHGAP25 on glutathione agarose beads incubated with neutrophil lysate loaded beforehand with GTPγS or GDPβS (15 mM EDTA, 15 min, RT; stopped with 60 mM MgCl2), 45 min, 4 °C; LFQ values of the two loadings compared

RAC2 (from UniProt P15153 1-192) (natural protein)
log2ΔFC of LFQ values, GTPγS-loaded against GDPβS-loaded lysate: 0.785
